Columns and labels:
[1] = target: Rhodesain (Trypanosoma brucei rhodesiense, UniProt Q95PM0); experiment: Inhibition of Trypanosoma brucei rhodesiense rhodesain
[2] = target: Procathepsin L (Homo sapiens, UniProt P07711); experiment: Inhibition of human liver cathepsin L

Protein sequences, listed by entry. Tags and fused reporters are not part of them. Lines headed by an entry give the natural chain unless they say otherwise; changes in a name come on top.
UniProt Q95PM0, whole entry: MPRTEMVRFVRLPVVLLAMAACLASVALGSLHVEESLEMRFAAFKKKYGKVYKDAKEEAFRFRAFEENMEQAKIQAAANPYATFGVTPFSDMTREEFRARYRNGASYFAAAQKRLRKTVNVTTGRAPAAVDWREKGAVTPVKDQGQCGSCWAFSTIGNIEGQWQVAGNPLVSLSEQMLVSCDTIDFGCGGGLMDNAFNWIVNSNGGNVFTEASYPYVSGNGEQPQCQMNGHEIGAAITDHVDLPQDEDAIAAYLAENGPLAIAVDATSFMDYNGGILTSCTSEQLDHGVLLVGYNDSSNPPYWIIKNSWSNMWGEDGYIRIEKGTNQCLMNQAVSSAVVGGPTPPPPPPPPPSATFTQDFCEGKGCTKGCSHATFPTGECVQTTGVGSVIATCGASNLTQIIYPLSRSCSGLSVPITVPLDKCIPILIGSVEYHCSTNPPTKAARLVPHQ
UniProt P07711: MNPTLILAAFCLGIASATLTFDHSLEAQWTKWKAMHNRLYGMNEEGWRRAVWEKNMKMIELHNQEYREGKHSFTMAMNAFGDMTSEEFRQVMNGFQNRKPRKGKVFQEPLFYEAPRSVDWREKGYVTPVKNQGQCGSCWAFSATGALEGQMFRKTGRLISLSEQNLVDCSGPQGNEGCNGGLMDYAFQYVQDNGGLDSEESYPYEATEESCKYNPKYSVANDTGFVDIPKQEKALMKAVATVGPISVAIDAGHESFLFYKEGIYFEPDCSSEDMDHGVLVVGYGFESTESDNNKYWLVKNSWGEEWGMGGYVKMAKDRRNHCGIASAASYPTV

How did the IC50 [1] turn out when `C=Cc1cccc(-c2cccc(CNc3nc(C#N)nc4c3ncn4CCCO)c2)c1` was run?
The IC50 was 1500 nM.

What about the IC50 [2] of the same molecule?
The IC50 was 1500 nM.

Source: ChEMBL document CHEMBL1155239, “Structure-guided development of selective TbcatB inhibitors” (J Med Chem, 2009)
